# US11004539B2, “Predicting metabolic side effects of transported drugs” (The Regents of the University of California, priority 2016, dated 2021)
# Molecular target: T1, OAT3 (Mus musculus, UniProt O88909)
# T1 sequence (O88909 1-537): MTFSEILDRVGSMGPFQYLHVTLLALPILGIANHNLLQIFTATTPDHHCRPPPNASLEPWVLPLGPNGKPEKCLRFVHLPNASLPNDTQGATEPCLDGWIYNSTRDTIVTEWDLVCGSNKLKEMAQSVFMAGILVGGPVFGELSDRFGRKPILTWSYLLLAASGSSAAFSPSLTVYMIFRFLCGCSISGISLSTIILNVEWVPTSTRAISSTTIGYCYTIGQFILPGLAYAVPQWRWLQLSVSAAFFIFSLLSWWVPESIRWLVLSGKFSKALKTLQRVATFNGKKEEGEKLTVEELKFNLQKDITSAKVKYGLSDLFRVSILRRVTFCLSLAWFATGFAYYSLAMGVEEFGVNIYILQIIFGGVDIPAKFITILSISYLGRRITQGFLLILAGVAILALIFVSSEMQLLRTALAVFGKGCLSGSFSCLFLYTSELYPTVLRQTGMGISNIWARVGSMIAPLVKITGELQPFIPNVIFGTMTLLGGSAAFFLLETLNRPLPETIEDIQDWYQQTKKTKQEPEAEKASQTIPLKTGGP
# Test: Plasma metabolomics profiling of Oat3KO versus wild-type mice
# Settings: Oat3KO vs wild type mice
substance,measurement,value
deoxycholate,change in plasma of the Oat3KO,significantly increased
phenyllactate,change in plasma of the Oat3KO,significantly increased
